The values that follow come from patent US9382265B2, “Oxazolidone compound, preparing method and application thereof” (SHANGHAI INSTITUTE OF MATERIA MEDICA, CHINESE ACADEMY OF …, priority 2013, dated 2016).

Sequences of proteins named here, by UniProt entry; tags and fusion partners are left off. Residues count along the entry.
UniProt P00742, 41-179 partner limits assumed: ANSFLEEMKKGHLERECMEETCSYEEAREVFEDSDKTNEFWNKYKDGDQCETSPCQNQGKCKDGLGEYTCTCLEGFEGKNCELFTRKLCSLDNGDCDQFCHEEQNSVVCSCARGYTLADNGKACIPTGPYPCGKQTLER
UniProt P00742, 235-488 limits assumed: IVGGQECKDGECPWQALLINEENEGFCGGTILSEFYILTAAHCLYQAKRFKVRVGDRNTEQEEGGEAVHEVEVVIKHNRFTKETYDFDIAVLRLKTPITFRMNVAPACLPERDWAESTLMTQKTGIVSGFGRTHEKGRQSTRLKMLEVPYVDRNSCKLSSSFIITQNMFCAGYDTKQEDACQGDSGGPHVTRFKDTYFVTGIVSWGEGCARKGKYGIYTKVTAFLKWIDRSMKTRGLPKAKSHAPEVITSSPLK

The target of this test is T1, human recombinant FXa (Homo sapiens, UniProt P00742).
T1 construct: purchased Calbiochem; host or cells: human plasma
Put plainly: FXa inhibitory activity assay (chromogenic substrate, 405 nm). Type of test: biochemical. The note with it: inhibitory activity on FXa, preincubated at 37° C. for 10 mins. The protocol: Experimental principle and method: FXa cuts the Arg carboxyl end in the substrate N-Z-D-Arg-Gly-Arg-pDA in vitro and releases p-nitrophenylamine which has specific absorption at 405 nm wavelength. The amount of the […] generated is determined at 405 nm to evaluate the activity of the compound to inhibit the human recombinant FXa in vitro.
Human plasma coagulation factor Xa was purchased from Calbiochem; the substrate N-Z-D-Arg-Gly-Arg-pDA was purchased from chromogenic. The subject compound, enzyme and the reaction buffer were mixed and preincubated at 37° C. for 10 mins. The substrate was added. The absorption at 405 nm wavelength was measured continuously over 20 mins. At the same time, a blank control group (without enzyme, 100% inhibition rate) and a negative control group (replace the subject compound with DMSO, 0% inhibition rate) were set up. The reaction system was 100 μl (50 μl of Tris buffer, 10 μl of compound, 20 μl (0.027 U/ml) of enzyme, 20 μl (300 μM) of substrate). Each concentration of each sample was assayed in triplicate. The experiment was carried out for 2 times independently.

As usually defined, the IC50 is the point on the concentration scale where inhibition reaches its midpoint. On to `O=C(NC[C@@H]1OC(=O)N2c3ccc(N4CCCCC4=O)cc3OC[C@@H]12)c1ccc(Cl)s1` [Compound 2, 5-chloro-N-(((3S,3aS)-1-oxo-7-(2-oxopiperidin-1-yl)-1,3,3a,4-tetrahydrobenzo[b]oxazolo[3,4-d][1,4]oxazin-3-yl)methyl)thiophene-2-carboxamide], for which the IC50 came to 6.68 ± 0.79 nM.
